Measurements published in paper PMC11017388 (ACS Medicinal Chemistry Letters, 2024).

Molecular target: Thrombin (Homo sapiens, UniProt P00734)
Test: Time-dependent potency determination against thrombin
Details: read-out: Thrombin IC50

D-Phe-Pro-Arg-chloromethylketone [reference compound]
IC50 (1 min preincubation): 3550 nM | IC50 (10 min preincubation): 981 nM | IC50 (60 min preincubation): 187 nM

Where two headings read alike, the source gives them in different places.
